From US20010036948A1 (priority 1998, published 2001)
Read-outs that look alike come from different tables or passages of the source.

System: T/G Human Aortic Smooth Muscle Cells
Conditions: scored eight days following treatment

COc1ccc2c(c1)=C(NC(C)CCCN(CCCl)CCCl)C1C=CC(Cl)=CC1N=2 (stereo not shown)
Growth score (1 nM, exposure 15 seconds): 4+ | Growth score (1 nM, exposure 30 seconds): 4+ | Growth score (1 nM, exposure 60 seconds): 4+ | Growth score (1 nM, exposure 90 seconds): 4+ | Growth score (1 nM, exposure 180 seconds): 4+ | Growth score (10 nM, exposure 15 seconds): 4+ | Growth score (10 nM, exposure 30 seconds): 4+ | Growth score (10 nM, exposure 60 seconds): 4+ | Growth score (10 nM, exposure 90 seconds): 4+ | Growth score (10 nM, exposure 180 seconds): 4+ | Growth score (100 nM, exposure 15 seconds): 3+ | Growth score (100 nM, exposure 30 seconds): 3+ | Growth score (100 nM, exposure 60 seconds): 3+ | Growth score (100 nM, exposure 90 seconds): 2+ | Growth score (100 nM, exposure 180 seconds): 2+ | Growth score (1 μM, exposure 15 seconds): 2+ | Growth score (1 μM, exposure 30 seconds): 2+ | Growth score (1 μM, exposure 60 seconds): 2+ | Growth score (1 μM, exposure 90 seconds): 2+ | Growth score (1 μM, exposure 180 seconds): 1+ | Growth score (10 μM, exposure 15 seconds): 1+ | Growth score (10 μM, exposure 30 seconds): +/− | Growth score (10 μM, exposure 60 seconds): +/− | Growth score (10 μM, exposure 90 seconds): +/− | Growth score (10 μM, exposure 180 seconds): −/+
